# Assay results as given in PubChem BioAssay AID504692 (The Scripps Research Institute Molecular Screening Center, 2011).
# Amino acid sequences for entries named in this document (tags omitted).
# UniProt P47898, whole entry, looked up: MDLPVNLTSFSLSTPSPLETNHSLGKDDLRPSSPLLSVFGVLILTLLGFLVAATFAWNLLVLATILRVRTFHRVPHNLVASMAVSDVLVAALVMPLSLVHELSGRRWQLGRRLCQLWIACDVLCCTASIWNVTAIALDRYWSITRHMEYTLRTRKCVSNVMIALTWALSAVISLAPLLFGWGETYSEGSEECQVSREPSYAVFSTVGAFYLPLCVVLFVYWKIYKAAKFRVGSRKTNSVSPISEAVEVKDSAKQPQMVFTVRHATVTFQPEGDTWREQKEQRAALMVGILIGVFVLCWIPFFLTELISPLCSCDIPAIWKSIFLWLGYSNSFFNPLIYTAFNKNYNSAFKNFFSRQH
# The list shows a part of the results, in another mix than the full data. Active and inactive are the calls of the source. Rule as the data show it: active = activation mostly above about 9.5% (no sharp cut-off); inactive = mostly below about 7.6%.
# Target: 5-hydroxytryptamine receptor 5A (Homo sapiens) (UniProt P47898)
# Experiment: activation of human 5-HT5A receptor – cell-based, luminescence, full-deck HTS, counter-screen for OPRM1-OPRD1 heterodimer agonist project, primary screen (AID 504692);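 also: 0% = cells with vehicle only and 100% = reference agonist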
# Details: HTR5A agonist assay, at 9.3 µM, active compounds read high
row,SMILES,activation
1,COc1ccc(CNc2nc3ccccc3n2CCN2CCCCC2)cc1,inactive: 1.82%
2,COCCN1CCn2c(nc3cc(NS(C)(=O)=O)ccc32)C1,inactive: 5.9%
3,O=C(Cn1cnc2ccccc21)N/N=C/c1ccco1,inactive: 0.41%
4,Cc1ccc2c(c1)C1CN(C)CCC1N2S(=O)(=O)c1ccc(C(C)C)cc1 (stereo not drawn),inactive: -4.84%
5,CCSc1nc2ccccc2n1CC(N)=O,inactive: 7.51%
6,COc1ccc(OC)c(CNc2nc3ccccc3n2CCN2CCCCC2)c1,inactive: -1.25%
7,O=C(Cn1cnc2ccccc21)Nc1ccccc1-c1ccccc1,inactive: 8.3%
8,CCC(C)N(C(=O)Cn1c(Cl)nc2c1c(=O)n(C)c(=O)n2C)C1CCS(=O)(=O)C1 (stereo not drawn),inactive: 0.64%
9,Brc1cccc(CNc2nc3ccccc3n2CCN2CCCCC2)c1,inactive: -6.77%
10,COC(=O)[C@H](Cc1ccccc1)NC(=O)Cn1cnc2c(NCc3ccccc3)ncnc21,inactive: 0.45%
11,Cn1c(=O)c2c(nc(CN3CCN(Cc4ccccc4)CC3)n2CCN2CCOCC2)n(C)c1=O,inactive: -2.26%
12,CC(NC(=O)Cn1c(NCCO)nc2ccccc21)c1ccccc1 (stereo not drawn),inactive: -0.14%
13,CCN(CC)CCn1c(=N)n(CC(O)c2ccc(OC)c(OC)c2)c2ccccc21 (stereo not drawn),inactive: 3.96%
14,CC(C)C[C@H](NC(=O)N1CCn2c1nc1ccccc12)C(=O)NC1CC1,inactive: 4.41%
15,COc1ccc(NC(=O)CN(C)C(=O)Cn2cnc3c2c(=O)n(C)c(=O)n3C)cc1,inactive: -7.15%
16,O=C(c1cccs1)N1CCn2c1nc1ccccc12,inactive: 2.22%
17,c1ccc2c(c1)nc1n2CCN1CCN1CCCC1,inactive: 2.36%
18,Cn1c(=O)c2c(ncn2CC(=O)N2CCN(S(=O)(=O)c3ccccc3)CC2)n(C)c1=O,inactive: 1.71%
19,CC1CCCC(C)N1C(=O)Cn1c(SCC(=O)Nc2ccc3c(c2)OCO3)nc2ccccc21 (stereo not drawn),inactive: -1.28%
20,Cc1ccccc1Oc1ccc2c(c1)[C@@H]1C[C@H](N(C)C(=O)NC3CCCCC3)[C@H]([C@H](C)O)C(=O)N1CC2,inactive: 0.07%

row,SMILES,activation
1,CCOCCn1c(=O)c2c(nc3n2CCN3c2ccc(C)cc2)n(C)c1=O,inactive: 3.89%
2,N#CCCN1CCn2c1nc1ccccc12,inactive: 0.45%
3,C[C@@H](NC(=O)Cn1cnc2c(OCc3ccccc3)ncnc21)c1cccc2ccccc12,inactive: -1.95%
4,COc1ccc(OCC(O)Cn2c(=N)n(CCN3CCCCC3)c3ccccc32)cc1 (stereo not drawn),inactive: 2.66%
5,Cn1c(=O)c2ncn(CC(=O)N/N=C/c3ccco3)c2n(C)c1=O,inactive: -1.13%
6,O=C(Cn1cnc2c(OCc3ccccc3)ncnc21)NCC1CCCO1 (stereo not drawn),inactive: 0.98%
7,O=P(Nc1nccs1)(c1ccccc1)c1ccccc1,inactive: 0.33%
8,Cn1c(=O)n(CC(=O)N2CCOCC2)c2ccccc21,inactive: -2.25%
9,c1ccc(CNc2nc3ccccc3n2CCN2CCOCC2)nc1,inactive: -0.47%
10,CC(C)C(=O)NC(Sc1ccccc1)C(Cl)(Cl)Cl (stereo not drawn),inactive: 0.11%
11,CC(/C=N/NC(=O)Cn1cnc2c1c(=O)n(C)c(=O)n2C)=C\c1ccccc1,inactive: 3.62%
12,CCC(C(=O)NC1CCCCC1)n1c(SCc2cccc(F)c2)nc2ccncc21 (stereo not drawn),inactive: 0.96%
13,CC(C)C[C@H](NC(=O)N1CCn2c1nc1ccccc12)C(=O)N[C@H](Cc1ccccc1)C(=O)O,inactive: -3.11%
14,CC(C)c1ccccc1NC(=O)Cn1c(-c2ccccc2Cl)nc2ccccc21,inactive: -1.41%
15,CCc1ccc(NC(=O)Cn2cnc3c(=O)n(C)c(=O)n(C)c32)cc1,inactive: -1.01%
16,CCS(=O)(=O)c1nc2ccccc2n1CC(=O)N1CCCCC1,inactive: 6.35%
17,CCOC(=O)Cn1c(=O)oc2cc(S(=O)(=O)N3CCn4c3nc3ccccc34)ccc21,inactive: 5.29%
18,CC(C)[C@H](NC(=O)N1CCn2c1nc1ccccc12)C(=O)N[C@@H](Cc1ccccc1)C(=O)O,inactive: 5.92%
19,Cc1ccc(-c2csc(N3CCC[C@@H]3C(=O)NCCn3c(-c4ccncc4)nc4ccccc43)n2)cc1,inactive: 17.7%
20,O=C(Cn1cnc2ccccc21)N/N=C/c1ccccc1,inactive: -2.87%

row,SMILES,activation
1,COc1ccc(-c2ccc3c(c2)[C@@H]2C[C@H](N(C)C(=O)C(C)(C)C)[C@H]([C@H](C)O)C(=O)N2CC3)cc1,inactive: 0.4%
2,CN(C)Cc1ccc(-c2nc3cccc4c3n2CCNC4=O)cc1,inactive: -4.2%
3,CCCC(=O)Nc1ccc2c(c1)nc1n2CCN(C2CCCCC2)C1,inactive: -2.05%
4,Cc1ccc(NC(=O)Cn2c(/C=C/c3ccccc3)nc3ccccc32)cc1C,inactive: -0.05%
5,CCN(C(=O)Cn1c(Cl)nc2c1c(=O)n(C)c(=O)n2C)C1CCCCC1,inactive: 0.16%
6,O=C(Cn1c(CO)nc2ccccc21)Nc1cc(C(F)(F)F)ccc1N1CCOCC1,inactive: 4.18%
7,CCNC(=O)Cn1cnc2c1c(=O)n(C)c(=O)n2C,inactive: 4.69%
8,O=C(CCCCCNC(=O)N1CCn2c1nc1ccccc12)NCc1ccccc1,inactive: -2.25%
9,CCN(CC)CCn1c(NCc2nc3ccccc3n2Cc2ccccc2)nc2ccccc21,inactive: 1.21%
10,CSc1nc2ccccc2n1CC(=O)Nc1cc(C(F)(F)F)ccc1N1CCOCC1,inactive: -1.17%
11,CCOc1ccc(CCNC(=O)Cn2c(-c3nonc3N)nc3ccccc32)cc1OCC,inactive: -0.74%
12,c1nnnn1CCn1cnnn1,inactive: -1.83%
13,CCC(=O)Nc1cccc(C(=O)/C=C/c2ccccc2)c1,inactive: -1.04%
14,CCN(CC)C(=O)CSc1nc2ccccc2n1CC(=O)N1CCN(c2ccccc2OC)CC1,inactive: -1.83%
15,CC(=O)c1ccc(N2CC2c2ccncc2)cc1 (stereo not drawn),inactive: -2.93%
16,O=C(Cn1c(SCC(=O)N2CCCc3ccccc32)nc2ccccc21)N1CCCC1,inactive: 2.58%
17,N#C/C(=C\c1ccc(N(CCBr)CCBr)cc1)C(N)=O,inactive: 6.33%
18,Cc1ccc2c(c1)C1CN(C)CCC1N2S(=O)(=O)c1cccc(F)c1 (stereo not drawn),inactive: 2.18%
